Assay results reported in ChEMBL document CHEMBL5223100, “Homobivalent, Trivalent, and Covalent PROTACs: Emerging Strategies for Protein Degradation” (J Med Chem, 2022).

System: MV4-11
Assay: Antiproliferative activity against human MV4-11 cells

`Cc1ncsc1-c1ccc(CNC(=O)[C@@H]2C[C@@H](O)CN2C(=O)[C@@H](NC(=O)COCCOCCOCCNC(=O)C[C@@H]2N=C(c3ccc(Cl)cc3)c3c(sc(C)c3C)-n3c(C)nnc32)C(C)(C)C)cc1` was tested, and the IC50 was 11.3 nM.
